Experimental findings from patent US20260116920A1, “HUMAN TRANSFERRIN RECEPTOR BINDING PEPTIDE” (PEPTIDREAM INC., priority 2021, published 2026) are described below.

Chains of the proteins cited; added tags and fusions are not shown. Residues count along the entry.
UniProt P02786, 89-760 limits assumed: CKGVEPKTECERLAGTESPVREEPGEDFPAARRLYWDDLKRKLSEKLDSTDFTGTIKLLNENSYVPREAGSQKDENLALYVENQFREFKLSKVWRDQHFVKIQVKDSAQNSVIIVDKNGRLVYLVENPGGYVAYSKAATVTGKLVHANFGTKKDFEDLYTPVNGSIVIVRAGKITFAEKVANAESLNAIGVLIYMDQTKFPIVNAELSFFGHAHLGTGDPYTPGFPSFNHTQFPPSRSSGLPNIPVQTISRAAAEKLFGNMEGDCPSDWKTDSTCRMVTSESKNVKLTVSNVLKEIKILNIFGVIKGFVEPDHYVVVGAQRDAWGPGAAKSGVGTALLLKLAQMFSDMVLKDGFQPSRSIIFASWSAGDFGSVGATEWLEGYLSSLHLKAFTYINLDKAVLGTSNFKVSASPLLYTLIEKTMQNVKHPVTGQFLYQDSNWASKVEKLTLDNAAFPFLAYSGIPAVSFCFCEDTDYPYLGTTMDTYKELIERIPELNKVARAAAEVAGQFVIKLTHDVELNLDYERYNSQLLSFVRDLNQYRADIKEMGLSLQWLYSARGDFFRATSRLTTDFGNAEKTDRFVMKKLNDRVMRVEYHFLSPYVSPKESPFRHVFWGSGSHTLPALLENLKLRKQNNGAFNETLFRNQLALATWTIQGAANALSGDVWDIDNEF

Read-outs that look alike come from different tables or passages of the source.

In the experiment the target is T1, human transferrin receptor (hTfR) (Homo sapiens, UniProt P02786).
T1 construct: made in house
In words: Evaluation of molecular interaction between transferrin receptor (hTfR) and peptide using surface plasmon resonance (SPR). Type of experiment: binding. In short, it runs like this:
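Steps: NTA chip loaded with NiCl2, activated with EDC/NHS, coated with 0.5 μM hTfR dimer, capped with ethanolamine. Peptides diluted from DMSO stock into running buffer (pH 8.0, 1.0% DMSO) at 5–100 nM and injected in single-cycle mode. Sensorgrams fitted to give KD.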
A general note: In SPR one partner is held on a chip, and binding of the other changes the refractive index at the surface.

The mark [1] stands for this setting: KD class of peptide with linker binding to hTfR, by SPR (TABLE 5), read-out: SPR.
Setting [2] is: KD class of the peptide with linker for hTfR by surface plasmon resonance, read-out: SPR.

Consider `CC[C@H](C)[C@@H]1NC(=O)[C@H](Cc2ccc(OCC(=O)O)cc2)NC(=O)[C@H](Cc2ccc(O)cc2)NC(=O)[C@H](CC(N)=O)NC(=O)[C@H](Cc2cn(CC(=O)O)c3ccccc23)NC(=O)[C@H](C(C)C)NC(=O)[C@H](Cc2cccc(Cl)c2)N(C)C(=O)[C@H](C(C)C)NC(=O)[C@H](C)NC(=O)CSC[C@@H](C(=O)NCC(=O)NCC(=O)NCC(=O)NCC(=O)N[C@@H](CO)C(=O)N[C@@H](CO)C(=O)N[C@@H](CCCCN=[N+]=[N-])C(N)=O)NC(=O)[C@H](Cc2ccc(O)cc2)N(C)C(=O)[C@H](Cc2cccc(C(=O)O)c2)NC(=O)[C@H](CCCNC(=N)N)NC(=O)[C@H](CCC(N)=O)NC(=O)[C@H]([C@@H](C)CC)NC1=O` [compound 279], for which the Kd (SPR, KD class of the peptide with linker for hTfR by surface plasmon resonance) lay in the range of 1 to 100 nM.
On to `CC[C@H](C)[C@@H]1NC(=O)[C@H](Cc2ccc(OCC(=O)O)cc2)NC(=O)[C@H](Cc2ccc(O)cc2)NC(=O)[C@H](CC(N)=O)NC(=O)[C@H](Cc2cn(CC(=O)O)c3ccccc23)NC(=O)[C@H](C(C)C)NC(=O)[C@H](Cc2cccc(Cl)c2)N(C)C(=O)[C@H](C(C)C)NC(=O)[C@H](C)NC(=O)CSC[C@@H](C(=O)NCC(=O)N[C@H](CCC(=O)O)C(=O)N[C@H](CO)C(=O)N[C@H](CCC(=O)O)C(=O)N[C@H](CCC(=O)O)C(=O)N[C@H](CO)C(=O)N[C@@H](CCCCNC(C)=O)C(N)=O)NC(=O)[C@H](Cc2ccc(O)cc2)N(C)C(=O)[C@H](Cc2ccccc2)NC(=O)[C@H](CCCNC(=N)N)NC(=O)[C@H](CCCNC(=N)N)NC(=O)[C@H]([C@@H](C)CC)NC1=O` [compound 331], for which the Kd under setting [1] lay in the range of 1 to 100 nM.
For `CC[C@H](C)[C@@H]1NC(=O)[C@H](Cc2ccc(O)cc2)NC(=O)[C@H](Cc2ccc(O)cc2)NC(=O)[C@H](CC(N)=O)NC(=O)[C@H](Cc2c[nH]c3ccccc23)N(C)C(=O)[C@H](C(C)C)NC(=O)[C@H](Cc2ccccc2)N(C)C(=O)[C@H](C(C)C)NC(=O)[C@H](C)NC(=O)CSC[C@@H](C(=O)NCC(=O)N[C@H](C(=O)N[C@@H](CCCNC(N)=O)C(=O)N[C@@H](CCCCN=[N+]=[N-])C(N)=O)C(C)C)NC(=O)[C@H](Cc2ccc(O)cc2)N(C)C(=O)[C@H](Cc2ccc(O)cc2)NC(=O)[C@H](CCCNC(=N)N)NC(=O)[C@H](CCCCN)NC(=O)[C@H]([C@@H](C)CC)NC1=O` [compound 299], the Kd under setting [2] was in the range of 1 to 100 nM.
The same measure, in the same setting: to `CC[C@H](C)[C@@H]1NC(=O)[C@H](Cc2ccc(OCC(=O)O)cc2)NC(=O)[C@H](Cc2ccc(O)cc2)NC(=O)[C@H](CC(N)=O)NC(=O)[C@H](Cc2cn(CC(=O)O)c3ccccc23)NC(=O)[C@H](C(C)C)NC(=O)[C@H](Cc2cccc(Cl)c2)N(C)C(=O)[C@H](C(C)C)NC(=O)[C@H](C)NC(=O)CSC[C@@H](C(=O)NCC(=O)N[C@@H](CCCCNC(=O)C2CCC(CN3C(=O)C=CC3=O)CC2)C(N)=O)NC(=O)[C@H](Cc2ccc(O)cc2)N(C)C(=O)[C@H](Cc2cccc(C(=O)O)c2)NC(=O)[C@H](CCCNC(=N)N)NC(=O)[C@H](CCC(N)=O)NC(=O)[C@H]([C@@H](C)CC)NC1=O` (stereo partly shown) [compound 290] belongs 1 to 100 nM.
In the case of `CC[C@H](C)[C@@H]1NC(=O)[C@H](Cc2ccc(OCC(=O)O)cc2)NC(=O)[C@H](Cc2ccc(O)cc2)NC(=O)[C@H](CC(N)=O)NC(=O)[C@H](Cc2cn(CC(=O)O)c3ccccc23)NC(=O)[C@H](C(C)C)NC(=O)[C@H](Cc2cccc(Cl)c2)N(C)C(=O)[C@H](C(C)C)NC(=O)[C@H](C)NC(=O)CSC[C@@H](C(=O)NCC(=O)N[C@@H](CCCCN=[N+]=[N-])C(N)=O)NC(=O)[C@H](Cc2ccc(O)cc2)N(C)C(=O)[C@H](Cc2cccc(C(=O)O)c2)NC(=O)[C@H](CCCNC(=N)N)NC(=O)[C@H](CCC(N)=O)NC(=O)[C@H]([C@@H](C)CC)NC1=O` [compound 356], the Kd under setting [1] was less than 1 nM.
With `CC[C@H](C)[C@@H]1NC(=O)[C@H](Cc2ccc(OCC(=O)O)cc2)NC(=O)[C@H](Cc2ccc(O)cc2)NC(=O)[C@H](CC(N)=O)NC(=O)[C@H](Cc2cn(CC(=O)O)c3ccccc23)NC(=O)[C@H](C(C)C)NC(=O)[C@H](Cc2cccc(Cl)c2)N(C)C(=O)[C@H](C(C)C)NC(=O)[C@H](C)NC(=O)CSC[C@@H](C(=O)NCC(=O)N[C@H](CO)C(=O)N[C@H](CO)C(=O)N[C@H](CO)C(=O)N[C@H](CCC(=O)O)C(=O)N[C@H](CCC(=O)O)C(=O)N[C@@H](CCCCNC(C)=O)C(N)=O)NC(=O)[C@H](Cc2ccc(O)cc2)N(C)C(=O)[C@H](Cc2ccccc2)NC(=O)[C@H](CCCNC(=N)N)NC(=O)[C@H](CCCNC(=N)N)NC(=O)[C@H]([C@@H](C)CC)NC1=O` [compound 310], the Kd under setting [2] is 1 to 100 nM.
`CC[C@H](C)[C@@H]1NC(=O)[C@H](Cc2ccc(OCC(=O)O)cc2)NC(=O)[C@H](Cc2ccc(N)nc2)NC(=O)[C@H](CC(N)=O)NC(=O)[C@H](Cc2c[nH]c3ccccc23)NC(=O)[C@H](C(C)C)NC(=O)[C@H](Cc2cccc(Cl)c2)N(C)C(=O)[C@H](C(C)C)NC(=O)[C@H](C)NC(=O)CSC[C@@H](C(=O)NCC(=O)N(C)CC(=O)N(C)CC(=O)N(C)CC(=O)N(C)CC(=O)N(C)CC(=O)N[C@@H](CCCCN=[N+]=[N-])C(N)=O)NC(=O)[C@H](Cc2ccc(O)cc2)N(C)C(=O)[C@H](Cc2cccc(C(=O)O)c2)NC(=O)[C@H](CCCNC(=N)N)NC(=O)[C@H](CCC(=O)NCCOCCOCCOCCOCCOCCOCCOCCOC)NC(=O)[C@H]([C@@H](C)CC)NC1=O` [compound 270]: the Kd under setting [2] was in the range of 1 to 100 nM.
For `CC[C@H](C)[C@@H]1NC(=O)[C@H](Cc2ccc(O)cc2)NC(=O)[C@H](Cc2ccc(O)cc2)NC(=O)[C@H](CC(=O)O)NC(=O)[C@H](Cc2c[nH]c3ccccc23)NC(=O)[C@H](C(C)C)NC(=O)[C@H](Cc2ccccc2)N(C)C(=O)[C@H](C(C)C)NC(=O)[C@H](C)NC(=O)CSC[C@@H](C(=O)NCCOCCOCCOCCOCCOCCOCCOCCOCCOCCOCCOCCOCCC(N)=O)NC(=O)[C@H](Cc2ccc(O)cc2)N(C)C(=O)[C@H](Cc2ccc(O)cc2)NC(=O)[C@H](CCCNC(=N)N)NC(=O)[C@H](CCCNC(=N)N)NC(=O)[C@H]([C@@H](C)CC)NC1=O` [compound 260], the Kd (SPR, immobilized recombinant hTfR, single-cycle kinetics, substitution variants of 894_3151, read-out: KD) was 72.1 nM.
As for `CC[C@H](C)[C@@H]1NC(=O)[C@H](Cc2ccc(O)cc2)NC(=O)[C@H](Cc2ccc(O)cc2)NC(=O)[C@H](CC(N)=O)NC(=O)[C@H](Cc2c[nH]c3ccccc23)NC(=O)[C@H](C(C)C)NC(=O)[C@H](Cc2ccccc2)N(C)C(=O)[C@H](C(C)C)NC(=O)[C@H](C)NC(=O)CSC[C@@H](C(=O)NCC(=O)N[C@H](CCC(=O)O)C(=O)N[C@H](CCC(=O)O)C(=O)N[C@H](CCC(=O)O)C(=O)N[C@H](CO)C(=O)N[C@H](CO)C(=O)N[C@@H](CCCCNC(=O)C2CCC(CN3C(=O)C=CC3=O)CC2)C(N)=O)NC(=O)[C@H](Cc2ccc(O)cc2)N(C)C(=O)[C@H](Cc2ccc(O)cc2)NC(=O)[C@H](CCCNC(=N)N)NC(=O)[C@H](CCCNC(=N)N)NC(=O)[C@H]([C@@H](C)CC)NC1=O` (stereo partly shown) [compound 289], under setting [2], the Kd lay in the range of 1 to 100 nM.
Consider `CC[C@H](C)[C@@H]1NC(=O)[C@H](Cc2ccc(OCC(=O)O)cc2)NC(=O)[C@H](Cc2ccc(O)cc2)NC(=O)[C@H](CC(N)=O)NC(=O)[C@H](Cc2cn(CC(=O)O)c3ccccc23)NC(=O)[C@H](C(C)C)NC(=O)[C@H](Cc2cccc(Cl)c2)N(C)C(=O)[C@H](C(C)C)NC(=O)[C@H](C)NC(=O)CSC[C@@H](C(=O)NCC(=O)N[C@H](CCC(=O)O)C(=O)N[C@H](CO)C(=O)N[C@H](CO)C(=O)N[C@H](CO)C(=O)N[C@H](CCC(=O)O)C(=O)N[C@@H](CCCCNC(C)=O)C(N)=O)NC(=O)[C@H](Cc2ccc(O)cc2)N(C)C(=O)[C@H](Cc2ccccc2)NC(=O)[C@H](CCCNC(=N)N)NC(=O)[C@H](CCCNC(=N)N)NC(=O)[C@H]([C@@H](C)CC)NC1=O` [compound 318], for which the Kd under setting [1] was in the range of 1 to 100 nM.
As to `CC[C@H](C)[C@@H]1NC(=O)[C@H](Cc2ccc(OCC(=O)O)cc2)NC(=O)[C@H](Cc2ccc(N)nc2)NC(=O)[C@H](CC(N)=O)NC(=O)[C@H](Cc2c[nH]c3ccccc23)NC(=O)[C@H](C(C)C)NC(=O)[C@H](Cc2cccc(Cl)c2)N(C)C(=O)[C@H](C(C)C)NC(=O)[C@H](C)NC(=O)CSC[C@@H](C(=O)NCC(=O)N[C@@H](CCCCN=[N+]=[N-])C(N)=O)NC(=O)[C@H](Cc2ccc(O)cc2)N(C)C(=O)[C@H](Cc2cccc(C(=O)O)c2)NC(=O)[C@H](CCCNC(=N)N)NC(=O)[C@H](CCC(=O)NCCOCCOCCOCCOCCOCCOCCOCCOC)NC(=O)[C@H]([C@@H](C)CC)NC1=O` [compound 271], the Kd under setting [2] lay within 1 to 100 nM.
Take `CC[C@H](C)[C@@H]1NC(=O)[C@H](Cc2ccc(OCC(=O)O)cc2)NC(=O)[C@H](Cc2ccc(O)cc2)NC(=O)[C@H](CC(N)=O)NC(=O)[C@H](Cc2c[nH]c3ncccc23)NC(=O)[C@H](C(C)C)NC(=O)[C@H](Cc2cccc(Cl)c2)N(C)C(=O)[C@H](C(C)C)NC(=O)[C@H](C)NC(=O)CSC[C@@H](C(=O)NCC(=O)N[C@@H](CCCCN)C(N)=O)NC(=O)[C@H](Cc2ccc(O)cc2)N(C)C(=O)[C@H](Cc2cccc(C(=O)O)c2)NC(=O)[C@H](CCCNC(=N)N)NC(=O)[C@H](CCC(=O)NCCOCCOCCOCCOCCOCCOCCOCCOC)NC(=O)[C@H]([C@@H](C)CC)NC1=O` [compound 286]: the Kd under setting [2] is less than 1 nM.
Turning to `CC[C@H](C)[C@@H]1NC(=O)[C@H](Cc2ccc(OCC(=O)O)cc2)NC(=O)[C@H](Cc2ccc(O)cc2)NC(=O)[C@H](CC(N)=O)NC(=O)[C@H](Cc2cn(CC(=O)O)c3ccccc23)NC(=O)[C@H](C(C)C)NC(=O)[C@H](Cc2cccc(Cl)c2)N(C)C(=O)[C@H](C(C)C)NC(=O)[C@H](C)NC(=O)CSC[C@@H](C(=O)NCC(=O)N[C@H](CO)C(=O)N[C@H](CO)C(=O)N[C@H](CO)C(=O)N[C@H](CO)C(=O)N[C@H](CO)C(=O)N[C@@H](CCCCN=[N+]=[N-])C(N)=O)NC(=O)[C@H](Cc2ccc(O)cc2)N(C)C(=O)[C@H](Cc2cccc(C(=O)O)c2)NC(=O)[C@H](CCCNC(=N)N)NC(=O)[C@H](CCC(N)=O)NC(=O)[C@H]([C@@H](C)CC)NC1=O` [compound 355], under setting [1], the Kd was in the range of 1 to 100 nM.
